Test system: Caco-2 cells
Test: Cell permeability, flux assay using Caco-2 cells
Conditions: Caco-2, 2 hours

SMILES: CC(C)(C)[C@H](c1cc(-c2cc(F)ccc2F)cn1Cc1ccccc1)N(CCCN)C(=O)CO [Example 98, N-(3-aminopropyl)-N-{(1R)-1-[1-benzyl-4-(2,5-difluorophenyl)-1H-pyrrol-2-yl]-2,2-dimethylpropyl}-2-hydroxyacetamide]
- Papp (B-A): 21.3 ×10⁻⁶ cm/s
